The assay deals with human STING (hSTING) (Homo sapiens, UniProt Q86WV6). The experiment in a line: Inhibition test of intracellular human STING (hSTING) pathway using SEAP reporter cells (HEK-Blue ISG), stimulation with Compound 3. The settings on record: read-out: hSTING inhibitory activity, Compound 3 10 nM stimulation, 21 hours. How it is done: Inhibition test of intracellular human STING (hSTING) pathway using reporter cells
Since STING activates the transcription factor IRF3 upon ligand stimulation, the activity of STING can be evaluated by a reporter assay using a secretory alkaline phosphatase (SEAP reporter) integrated downstream of an IRF-inducible promoter.
That is, the hSTING inhibitory activity of the test compound was evaluated using HEK-Blue™MISG cells (manufactured by Invivogen, #hkb-isg-1) incorporating a SEAP reporter. Activation of hSTING was performed by stimulation with the small molecule ligand Compound 3 as described in the literature (Ramanjulu, J. M., et al., Nature. 2018, 564 (7736), 439-443). HEK-Blue™MISG cells were seeded in a 96-well plate and cultured overnight at 37° C. in a 5% CO2 incubator. […] After collecting the culture supernatant of each well, the reporter activity was measured by color development reaction with alkaline phosphatase.
The reporter activity of the test compound non-addition and Compound 3 addition group was set to 100%, and the reporter activity of the test compound non-addition and Compound 3 non-addition group was set to 0%. The IC50 value was determined by regression analysis of the inhibitory rate determined from the reporter activity at each compound concentration and the test compound concentration (logarithm).

By UniProt entry, the sequences of proteins in these tests, tags left out.
UniProt Q86WV6, whole entry H232R: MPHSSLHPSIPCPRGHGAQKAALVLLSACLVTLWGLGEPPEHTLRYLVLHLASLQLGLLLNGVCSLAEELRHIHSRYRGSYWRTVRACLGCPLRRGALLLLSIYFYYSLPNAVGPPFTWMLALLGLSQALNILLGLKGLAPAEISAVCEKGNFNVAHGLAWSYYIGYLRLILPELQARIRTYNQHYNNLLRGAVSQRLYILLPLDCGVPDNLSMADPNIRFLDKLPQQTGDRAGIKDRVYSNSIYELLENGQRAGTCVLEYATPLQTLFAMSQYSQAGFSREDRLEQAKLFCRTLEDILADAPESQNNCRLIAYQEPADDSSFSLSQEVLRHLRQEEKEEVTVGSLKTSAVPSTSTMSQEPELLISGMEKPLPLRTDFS

On to `Cn1c(Nc2c[nH]c3ccc(Cl)nc23)nc2ccc(Br)cc21`, for which the IC50 was more than 10 µM.

The record behind these values is patent US20240279205A1, “NOVEL BENZIMIDAZOLE DERIVATIVE” (Carna Biosciences, Inc., priority 2020, published 2024).
